{
  "source": "patent US7763605B2",
  "about": "“[1,4]benzodiazepines as vasopressin V2 receptor antagonists” (Janssen Pharmaceutica, N.V., priority 2004, dated 2010)",
  "key": {"human V2 receptor [1]": {"biological_target": "T1, human V2 receptor (Homo sapiens, UniProt P30518)", "T1 construct": "expressed in transfected cells; host or cells: HEK-293", "assay": "In vitro recombinant vasopressin receptor binding assay (3H-arginine vasopressin displacement), V2", "conditions": "cloned human receptor membranes from HEK-293 cells", "method": "Compounds were assessed for their ability to displace ^3H-arginine vasopressin from the human V-1 or V-2 receptor in HEK-293 cells. Assay buffer is 50 mM Tris-Cl, 5 mM MgCl2, 0.1% BSA (pH 7.5) containing 5 ug/ml of aprotinin, leupeptin, pepstatin, 50 ug/ml bacitracin, and 1 mM Pefabloc. ^3H-vasopressin is ^3H-arginine-8-vasopressin (68.5 Ci/mmol, final concentration in assay is 0.65-0.75 nM). Into wells of 96-well round bottom polypropylene plates were added buffer, test compound, membrane (containing cloned human V-1 or V-2 receptor), and ^3H-vasopressin. The reaction plates were allowed to sit at room temperature for one hour. The samples were filtered through Unifilter GF/C plates (presoaked in 0.3 polyethyleneimine). The plates were washed 5 times with cold physiological saline containing 0.05% Tween 20. After drying, the bottom of the filter plates were sealed and 0.025 ml of Microscint-20 was added to each filter. The top of the plate was sealed, and the plate was counted. Non-specific binding was determined by the addition of 1.25 uM arginine-8-vasopressin in those wells."}, "human V2 receptor [2]": {"biological_target": "T1, human V2 receptor", "assay": "Inhibition of AVP-induced cAMP accumulation in transfected HEK-293 cells expressing human V2 receptor", "type": "cell-based", "conditions": "AVP 1 nM, HEK-293 expressing human V2, read-out: Functional V2 (IC50; μM)", "method": "HEK-293 cells were grown in DMEM media supplemented with 10% FBS and glutamine (Gibco BRL, Grand Island, N.Y.). Once transfected, the cells were passed biweekly by trypsinization and seeded into 96 well plates at 33,000 cells per well. HEK-293 were transfected with human V1a, V1b or V2 DNA using DMRIE-C reagent from Life Technologies, Inc., Grand Island, N.Y. Cells were tested for their responsiveness to vasopressin 48 h after transfection. Stable lines were generated by selecting cells grown in culture media containing geneticin (500 μg/mL, Life Technologies).\nThe accumulation of cAMP was measured in transfected HEK-293 expressing the human V2 receptor. The cells were cultured 4-7 d in 96-well plates. On the day of testing in this assay, cells were washed twice in assay media (DMEM/F12 containing 0.1% BSA). […] The cAMP content of 20 μL of the cell lysate in each well was measured using cAMP Flashplates (NEN Life Sciences). Data are expressed as pmol cAMP/well. While the assay is optimized to detect and quantitate antagonistic activity, agonistic activity would also be apparent at the higher concentrations of test compounds.\nThe data from the cAMP accumulation and the calcium mobilization assays are expressed as IC50 values as determined from dose response curves."}},
  "data": [
    {"substance": "(S)-Biphenyl-2-carboxylic acid [3-chloro-4-(4-methyl-3-morpholino-4-ylmethyl-2,3,4,5-tetrahydrobenzo[e][1,4]diazepine-1-carbonyl)-phenyl]-amide ditrifluoroacetate [Cpd 5]", "values": [
      {"measurement": "IC50", "setting": "human V2 receptor [1]", "value": 0.16, "unit": "µM"},
      {"measurement": "IC50", "setting": "human V2 receptor [2]", "value": 0.775, "unit": "µM"}
    ]}
  ]
}
